# High-throughput results from PubChem.
# UUG fidelity – yeast start codon fidelity modulation | S. cerevisiae UUG-firefly luciferase reporter, luminescence/redox ratio | activity score, % at 18.7 µM | 0.13% of 350,000 active | AID 602363;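 active means replicate mean at a twofold rise or more, about +100% in these data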;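 further: firefly luciferase made from a UUG start codon reports start codon fidelity; reporter light over untreated wells divided by growth signal over untreated wells; some hits fall short of that in this replicate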
# miR122 inh – miR-122 Renilla sensor signal increase in Huh7, primary screen, miR-122 inhibitor project, cell-based, single point, plate reader | Huh7 miR-122 Renilla luciferase sensor, 48 h; neutral wells = 0, positive control = 100 | activation (reporter increase), % at 12.5 µM | hit rate 0.3% among 340,000 | AID 602342, 2012;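 active means mean replicate activation score at least 90 and every replicate individually at or above 90; inconclusive means only one of the two criteria met; inactive means neither criterion met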;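 further: higher luciferase means less miR-122 activity so hits act as miR-122 inhibitors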
# PglD inh – C. jejuni PglD acetyltransferase inhibitors, primary screen, biochemical, DTNB colorimetric, single point. UDP-N-acetylbacillosamine N-acetyltransferase PglD (Campylobacter jejuni). purified PglD enzyme, DTNB colorimetric CoA detection. inhibition, % at 12.5 µM. hit rate 0.098% among 360,000. AID 602405, 2012; in the data active means inhibition above about 16%, passing the limit was not always enough; inconclusive means no clear call, values can overlap the other calls
# MITF act – activators of MITF-driven TRPM1 promoter reporter, primary screen, cell-based, SK-MEL-5, luciferase, single point; SK-MEL-5 TRPM1-promoter luciferase, 24 h; % of positive control, neutral wells = 0; activation, % at 12.5 µM; hit rate 0.75% among 300,000; AID 588334, 2011;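 active means mean activation of at least 80% with every replicate also reaching 80%; inconclusive means mean reaches 80% but some replicate falls short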;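 further: 0% = neutral control wells and 100% = parthenolide positive control wells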
# Wnt bcat act – Wnt/beta-catenin pathway activators, primary screen, cell-based, plate reader, single point; Wnt/beta-catenin reporter cell assay, activator; activation, % at 9.35 µM; hit rate 1.2% among 300,000; in the data active means activation above about 30%, passing the limit was not always enough; inconclusive means no clear call, values can overlap the other calls;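 further: 0% = neutral control wells and 100% = positive control wells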
# esBAF inh – Bmi1 luciferase reporter increase in mESCs, primary screen, esBAF inhibitor project, mouse ES cells, Bmi1 luciferase knock-in, single point; 24 h; 100% = twice the neutral-well signal; reporter increase, % at 12.5 µM; hit rate 2% among 350,000; in the data active means activation above about 40%; inconclusive means no clear call, values can overlap the other calls;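 further: 0% = median of the plate's neutral control wells and 100% = double that signal; a rise in the Bmi1 reporter signal indicates esBAF inhibition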
# Active calls of the source: *; ? = inconclusive; nt = not tested or not shown; [ ] = another dose, or the depositor's remark. In the library only some 2.8% were active in any assay of this set; here they are far more common.
cpd	structure	UUG fidelity	miR122 inh	PglD inh
1	Oc1[nH]c2ccccc2c1N=Nc1ccccc1F	nt	2	nt
2	Oc1[nH]c2ccccc2c1N=Nc1ccccc1	-15	4	-1
3	CCCCc1nc2cc(C(=O)N(C)C3CCOCC3)ccc2o1	-7	nt	2
4	Cc1cc(C)c(NC(=O)COC(=O)Cn2nc(-c3ccccc3)oc2=O)c(C)c1	-33	-3	2
5	N#Cc1cccc(NC(=O)COC(=O)Cn2nc(-c3ccccc3)oc2=O)c1	-10	nt	2
6	CCOc1ccc(N2C(=O)CS(=O)(=O)C2c2ccccc2)cc1 (stereo not drawn)	-17	nt	-1
7	O=C(NC(=S)Nc1cccc([N+](=O)[O-])c1)c1ccccc1	0	-4	1
8	O=C(NC(=S)Nc1cccc([N+](=O)[O-])c1)c1ccco1	nt	2	nt

cpd	MITF act	Wnt bcat act	esBAF inh
1	37	18	86*
2	20	28	52*
3	77	?	94*
4	-4	-4	-4
5	11	38*	-3
6	nt	nt	nt
7	nt	32*	nt
8	21	14	49*

# The listing continues.
cpd	structure	UUG fidelity	miR122 inh	PglD inh
9	O=C(C[C@@H]1C[C@@H]2c3cc(NC(=O)c4cccnc4)ccc3O[C@@H]2[C@H](CO)O1)NCCN1CCCCC1	nt	1[16.7 µM]	1
10	COc1ccccc1OCc1cc(C(=O)N2CCN(C)C(c3ccccc3)C2)no1 (stereo not drawn)	-9	-1	1
11	CSc1ccccc1OCc1cc(C(=O)N2CCN(C)C(c3ccccc3)C2)no1 (stereo not drawn)	-17	-3	7
12	CC(=O)c1ccc(OCc2cc(C(=O)N3CC4C[C@@H]5CC3C[C@H](C4)C5)no2)cc1	1	-7	3
13	O=C(c1cc(COc2ccc(F)cc2F)on1)N1CC2C[C@@H]3CC1C[C@H](C2)C3	-14	16	-3
14	COc1ccccc1OCc1cc(-c2ccccc2)no1	nt	nt	nt
15	c1ccc(OCc2cc(-c3ccccc3)no2)cc1	nt	nt	nt
16	COc1ccccc1OCc1cc(C(=O)N2CC3C[C@@H]4CC2C[C@H](C3)C4)no1	-8	nt	4

cpd	MITF act	Wnt bcat act	esBAF inh
9	nt	nt	4
10	26	41*	nt
11	12	1	20
12	64	30	nt
13	?	22	55*
14	95*	nt	nt
15	71	?	nt
16	89*	23	63*

# Shown as labelled records: part of the list above.
11) CSc1ccccc1OCc1cc(C(=O)N2CCN(C)C(c3ccccc3)C2)no1 (stereo not drawn)
  UUG fidelity = -17	miR122 inh = -3	PglD inh = 7	MITF act = 12	Wnt bcat act = 1	esBAF inh = 20
12) CC(=O)c1ccc(OCc2cc(C(=O)N3CC4C[C@@H]5CC3C[C@H](C4)C5)no2)cc1
  UUG fidelity = 1	miR122 inh = -7	PglD inh = 3	MITF act = 64	Wnt bcat act = 30	esBAF inh = nt
13) O=C(c1cc(COc2ccc(F)cc2F)on1)N1CC2C[C@@H]3CC1C[C@H](C2)C3
  UUG fidelity = -14	miR122 inh = 16	PglD inh = -3	MITF act = ?	Wnt bcat act = 22	esBAF inh = 55*
14) COc1ccccc1OCc1cc(-c2ccccc2)no1
  UUG fidelity = nt	miR122 inh = nt	PglD inh = nt	MITF act = 95*	Wnt bcat act = nt	esBAF inh = nt

# Additional entries follow.
cpd	structure	UUG fidelity	miR122 inh	PglD inh
17	O=C(C[C@H]1C[C@H]2c3cc(NC(=O)Nc4ccc(F)cc4)ccc3O[C@H]2[C@@H](CO)O1)NC1CCCCC1	-9	3[16.7 µM]	7
18	COc1ccc(OCc2cc(C(=O)N3C[C@H]4CC[C@H]3C4)no2)c(Cl)c1	5	8	-3
19	O=C(c1cc(COc2ccc(F)cc2F)on1)N1C[C@H]2CC[C@H]1C2	-6	nt	-2
20	O=C(c1cc(COc2c(F)cccc2F)on1)N1C[C@H]2CC[C@H]1C2	-8	-4	2
21	COCC1CCN(C(=O)c2cc(COc3ccc(F)cc3F)on2)C1 (stereo not drawn)	1	nt	-3
22	O=C(c1cc(COc2c(F)cccc2F)on1)N1CCC(c2ccccc2Cl)C1 (stereo not drawn)	nt	4	nt
23	O=C(Nc1nnc(-c2ccc(F)cc2)s1)c1ccco1	-22	nt	0
24	COc1cccc(OC)c1C(=O)Nc1nnc(-c2ccc(F)cc2)s1	-8	5	-1

cpd	MITF act	Wnt bcat act	esBAF inh
17	nt	nt	7
18	84*	14	61*
19	79	15	46*
20	71	34*	92*
21	11	3	6
22	50	-7	45*
23	106*	15	46*
24	20	1	13

# Additional compounds.
cpd	structure	UUG fidelity	miR122 inh	PglD inh
25	Cc1cccc(N(C)S(=O)(=O)c2nnc(NC(=O)c3ccco3)s2)c1	-9	-8	0
26	Cc1cccc(-c2nnc(NC(=O)c3ccco3)s2)c1	-20	88	-1
27	Cc1noc(C)c1NC(=O)Nc1cccc2c1O[C@@H](CN(C)Cc1ccc(Cl)c(Cl)c1)[C@H](C)CN([C@H](C)CO)C2=O	20	9[16.7 µM]	-1
28	Cc1noc(C)c1NC(=O)Nc1cccc2c1O[C@H](CN(C)Cc1ccccc1)[C@@H](C)CN([C@H](C)CO)C2=O	-2	97*[16.7 µM]	-4
29	Cc1noc(C)c1NC(=O)Nc1cccc2c1O[C@@H](CN(C)Cc1ccc(Cl)c(Cl)c1)[C@@H](C)CN([C@H](C)CO)C2=O	-17	114*[16.7 µM]	-1
30	CCOC(=O)CN1C(=O)S/C(=C/c2ccc3c(c2)n(C)c(=O)n3C)C1=O	nt	-16	nt
31	Cc1noc(C)c1NC(=O)Nc1ccc2c(c1)C(=O)N([C@H](C)CO)C[C@H](C)[C@H](CN(C)C(=O)Nc1cccc3ccccc13)OCCCC[C@H](C)O2	22	4[16.7 µM]	-1
32	O=C(c1ccc(Cl)cc1Cl)N1CCc2ccccc21	14	-2	1

cpd	MITF act	Wnt bcat act	esBAF inh
25	5	-2	-5
26	27	0	59*
27	nt	nt	2
28	nt	nt	-1
29	nt	nt	4
30	46	nt	46*
31	nt	nt	-1
32	-3	-1	-8

# Later entries.
cpd	structure	UUG fidelity	miR122 inh	PglD inh
33	O=C(/C=C/c1ccc(Cl)cc1Cl)N1CCc2ccccc21	nt	nt	nt
34	O=C(N/N=C/C(Cl)=C/c1ccccc1)c1ccco1	-17	-4	7
35	C/C(=N\NC(=O)c1ccco1)c1ccc(NC(=O)c2ccccc2)cc1	nt	nt	nt
36	C/C(=N\NC(=O)c1ccco1)c1ccc(-c2ccccc2)cc1	1	-6	5
37	O=C(N/N=C/C(Cl)=C/c1ccccc1)c1cnccn1	-26	1	6
38	O=C(N/N=C/C(Cl)=C\c1ccccc1)c1ccco1	-10	-4	15
39	O=C(C1CC1)N1[C@H](CO)[C@H]2c3ccccc3NC[C@H]21	-7	20[16.7 µM]	-3
40	COC(=O)N/N=C\c1ccc(OC/C=C/c2ccccc2)cc1	-21	-4	1

cpd	MITF act	Wnt bcat act	esBAF inh
33	65	48*	nt
34	80	12	70*
35	70	3	nt
36	76	26	59*
37	52	nt	24
38	nt	57*	nt
39	nt	nt	-9
40	71	8	nt

# The list goes on.
cpd	structure	UUG fidelity	miR122 inh	PglD inh
41	CC(C)(O)C(=O)N/N=C\c1ccc(OC/C=C/c2ccccc2)cc1	3	-7	5
42	CC(=O)N/N=C\c1ccccc1OC/C=C/c1ccccc1	-3	-6	0
43	CC(=O)N/N=C\c1cccc(OC/C=C/c2ccccc2)c1	-10	0	4
44	COc1ccc(C2CC(=O)N(C)c3ccccc3S2)cc1OC (stereo not drawn)	nt	6	nt
45	CN1CCN(/N=C/c2ccc(Cl)c(Cl)c2)CC1	nt	nt	nt
46	CN1CCN(/N=C/c2ccc(Br)cc2)CC1	-4	-4	4
47	CC(C)(C)c1cc(C(=O)NNC(=O)c2ccc(C(F)(F)F)cc2)no1	nt	nt	nt
48	Cc1nnsc1C(=O)NNC(=O)c1ccc(C(F)(F)F)cc1	-5	-4	-4
49	O=S(=O)(c1ccc(Cl)s1)N1CCc2ccccc2C1	0	6	-1

cpd	MITF act	Wnt bcat act	esBAF inh
41	105*	13	29
42	?	42*	70*
43	16	18	38
44	35	54*	28
45	88*	nt	nt
46	95*	7	40
47	5	49*	3
48	7	9	18
49	-6	nt	-1
